Source: ChEMBL document CHEMBL1126080, “Selective reversible and irreversible ligands for the kappa opioid receptor” (1992)

The chains behind the UniProt entries cited, without tags or fusion partners. Where a name states a change or a piece, a line headed by the entry shows the natural chain unless it says otherwise.
UniProt P41143, whole entry, looked up: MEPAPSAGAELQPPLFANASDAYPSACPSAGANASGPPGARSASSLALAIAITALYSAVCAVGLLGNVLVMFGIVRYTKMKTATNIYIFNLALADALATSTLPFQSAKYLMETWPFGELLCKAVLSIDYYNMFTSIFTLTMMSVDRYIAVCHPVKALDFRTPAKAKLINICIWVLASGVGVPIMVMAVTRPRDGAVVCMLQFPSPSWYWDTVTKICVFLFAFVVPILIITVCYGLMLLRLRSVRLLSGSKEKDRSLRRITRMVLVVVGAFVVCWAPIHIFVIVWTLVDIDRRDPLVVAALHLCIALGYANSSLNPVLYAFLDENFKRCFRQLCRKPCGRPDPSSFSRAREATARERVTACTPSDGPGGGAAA
UniProt P41144: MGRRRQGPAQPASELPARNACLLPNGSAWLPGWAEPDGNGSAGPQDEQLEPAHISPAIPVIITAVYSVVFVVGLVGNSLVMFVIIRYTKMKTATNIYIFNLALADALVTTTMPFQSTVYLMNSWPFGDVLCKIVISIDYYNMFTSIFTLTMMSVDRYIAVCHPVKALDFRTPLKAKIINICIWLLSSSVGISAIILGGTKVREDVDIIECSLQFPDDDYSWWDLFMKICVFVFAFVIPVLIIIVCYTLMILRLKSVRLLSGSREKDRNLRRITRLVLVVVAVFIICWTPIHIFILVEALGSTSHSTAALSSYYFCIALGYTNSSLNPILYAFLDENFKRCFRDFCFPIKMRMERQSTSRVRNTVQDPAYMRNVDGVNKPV
UniProt P97266, whole entry, looked up: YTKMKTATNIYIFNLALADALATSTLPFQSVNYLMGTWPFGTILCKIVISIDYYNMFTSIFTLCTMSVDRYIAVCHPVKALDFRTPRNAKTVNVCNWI

Assays:
Parameters in all cases: scale not given: the % may be the effect or the level left
[1] = target: Delta-type opioid receptor (Homo sapiens) (UniProt P41143); assay: Irreversible inhibition of [3H]-DADLE binding to delta opioid receptors of guinea pig brain membranes on preincubation with 10E-4 M of the compound.; conditions: Cavia porcellus, Membrane
[2] = target: Kappa-type opioid receptor (Cavia porcellus) (UniProt P41144); assay: Irreversible inhibition of [3H]naloxone binding to kopioid receptor kappa of guinea pig brain membranes on preincubation with 10E-4 M of the compound; conditions: Membrane
[3] = target: Kappa-type opioid receptor (Cavia porcellus) (UniProt P41144); assay: Irreversible inhibition of [3H]naloxone binding to opioid receptor kappa of guinea pig brain membranes on preincubation with 10E-5 M of the compound.; conditions: Membrane
[4] = target: Delta-type opioid receptor (Homo sapiens) (UniProt P41143); assay: Irreversible inhibition of [3H]-DADLE binding to delta opioid receptors of guinea pig brain membranes on pre-incubation with 10E-5 M of the compound.; conditions: Cavia porcellus, Membrane
[5] = target: Kappa-type opioid receptor (Cavia porcellus) (UniProt P41144); assay: Irreversible inhibition of [3H]-naloxone binding to opioid receptor kappa of guinea pig brain membranes on pre-incubation with 10E-6 M of the compound.; conditions: Membrane
[6] = target: Mu-type opioid receptor (Cavia porcellus) (UniProt P97266); assay: Irreversible inhibition of [3H][3H]ethylketocyclazocine binding to mu opioid receptors of guinea pig brain membranes on pre-incubation with 10E-4 M of the compound; conditions: Membrane
[7] = target: Mu-type opioid receptor (Cavia porcellus) (UniProt P97266); assay: Irreversible inhibition of [3H][3H]ethylketocyclazocine binding to mu opioid receptors of guinea pig brain membranes on pre-incubation with 10E-5 M of the compound.; conditions: Membrane
[8] = target: Mu-type opioid receptor (Cavia porcellus) (UniProt P97266); assay: Irreversible inhibition of [3H][3H]ethylketocyclazocine binding to mu opioid receptors of guinea pig brain membranes on pre-incubation with 10E-6 M of the compound.; conditions: Membrane
[9] = target: Delta-type opioid receptor (Homo sapiens) (UniProt P41143); assay: Irreversible inhibition of [3H]DADLE binding to delta opioid receptors of guinea pig brain membranes on preincubation with 10E-4 M of the compound; conditions: Cavia porcellus, Membrane
[10] = target: Delta-type opioid receptor (Homo sapiens) (UniProt P41143); assay: Irreversible inhibition of [3H]DADLE binding to delta opioid receptors of guinea pig brain membranes on preincubation with 10E-6 M of the compound.; conditions: Cavia porcellus, Membrane
[11] = target: Kappa-type opioid receptor (Cavia porcellus) (UniProt P41144); assay: Irreversible inhibition of [3H]naloxone binding to opioid receptor kappa of guinea pig brain membranes on preincubation with 10E-4 M of the compound; conditions: Membrane
[12] = target: Kappa-type opioid receptor (Cavia porcellus) (UniProt P41144); assay: Irreversible inhibition of [3H]naloxone binding to kopioid receptor kappa of guinea pig brain membranes on preincubation with 10E-5 M of the compound; conditions: Membrane
[13] = target: Kappa-type opioid receptor (Cavia porcellus) (UniProt P41144); assay: Irreversible inhibition of [3H]-naloxone binding to opioid receptor kappa of guinea pig brain membranes on pre-incubation with 10E-6 M of the compound; conditions: Membrane
[14] = target: Kappa-type opioid receptor (Cavia porcellus) (UniProt P41144); assay: Irreversible inhibition of [3H]-naloxone binding to opioid receptor kappa of guinea pig brain membranes on preincubation with 10E-7 M of the compound.; conditions: Membrane
[15] = target: Kappa-type opioid receptor (Cavia porcellus) (UniProt P41144); assay: Irreversible inhibition of [3H]-naloxone binding to opioid receptor kappa of guinea pig brain membranes on preincubation with 5*10e-7 M of the compound; conditions: Membrane
[16] = target: Mu-type opioid receptor (Cavia porcellus) (UniProt P97266); assay: Irreversible inhibition of [3H][3H]ethylketocyclazocine binding to mu opioid receptors of guinea pig brain membranes on pre-incubation with 10E-5 M of the compound; conditions: Membrane
[17] = target: Kappa-type opioid receptor (Cavia porcellus) (UniProt P41144); assay: Irreversible inhibition of [3H]naloxone binding to opioid receptor kappa of guinea pig brain membranes on preincubation with 10E-5 M of the compound; conditions: Membrane
[18] = target: Delta-type opioid receptor (Homo sapiens) (UniProt P41143); assay: Irreversible inhibition of [3H]-DADLE binding to delta opioid receptors of guinea pig brain membranes on pre-incubation with 10E-7 M of the compound.; conditions: Cavia porcellus, Membrane
[19] = target: Mu-type opioid receptor (Cavia porcellus) (UniProt P97266); assay: Irreversible inhibition of [3H][3H]ethylketocyclazocine binding to mu opioid receptors of guinea pig brain membranes on preincubation with 10E-7 M of the compound.; conditions: Membrane

Structure (SMILES)	Control [1] [%]	Control [2] [%]	Control [3] [%]	Control [4] [%]	Control [5] [%]	Control [6] [%]	Control [7] [%]	Control [8] [%]	Control [9] [%]	Control [10] [%]	Control [11] [%]	Control [12] [%]	Control [13] [%]	Control [14] [%]	Control [15] [%]	Control [16] [%]	Control [17] [%]	Control [18] [%]	Control [19] [%]
CN(C(=O)Cc1ccc(Cl)c(Cl)c1)C1CCCCC1N1CCCC1 (stereo unspecified)	96	105	38	91	109	78	101	91											
C=C1C[C@]2(CC[C@H](N3CCCC3)[C@@H](N(C)C(=O)Cc3ccc(Cl)c(Cl)c3)C2)OC1=O				97		24		100	66	100	49	73	13	92	69	73			
C=C1C[C@@]2(CC[C@H](N3CCCC3)[C@@H](N(C)C(=O)Cc3ccc(Cl)c(Cl)c3)C2)OC1=O				81	74	36		83	51	103	93			86		64	44	95	89
